{"source": "patent US20260382653A1", "about": "“METHOD AND COMPOSITIONS FOR TREATING BURN WOUNDS” (published 2026)", "origin": "cited, not measured here", "tested_on": "burn wound patients", "data": [{"smiles": "Nc1ccc(S(=O)(=O)Nc2ncccn2)cc1.[Ag]", "values": [{"measurement": "cytotoxicity", "setting": "depending on the amount applied", "value": "has been shown to be cytotoxic"}, {"measurement": "allergic reaction", "setting": "some burn wound patients", "value": "may cause an allergic reaction"}]}]}
